Source: PMC6057921

How the values were obtained:
[1] = target: Actin filament branch junction (yeast Arp2/3 complex on rabbit muscle actin filaments) (rabbit | yeast (RedStar yeast cakes)) (UniProt P68135); test: single-molecule TIRF colocalisation; 10 nM Abp1-SNAP-649, 8 nM Arp2/3 complex and 1 µM actin (10% OG-labeled, 0.5% biotin-labeled) polymerised together; 1 s intervals for 10 min; 1.14 µm^2 detection box
[2] = target: Arp2/3 complex (untagged, yeast) (yeast (RedStar yeast cakes)) (UniProt P32381); test: negative-stain single-particle electron microscopy; Abp1-SNAP and Arp2/3 complex at 1:1 molar ratio (100 nM each), 30 min at room temperature, uranyl formate stain; random conical tilt 3D reconstructions at 21 Å

calculated occupancy of available branch sites [1]: 60% | lifetime, longer-lived component of branch colocalization events [1]: 28 s | percent of particles in the Class 2 Abp1-bound reconstruction [2]: 14%
Substance: Abp1-SNAP (S. cerevisiae Abp1 with C-terminal SNAP-tag, dye-labelled) (from UniProt P15891 1-592) (natural protein)
